Measured values from paper PMC2906706 (Cancer research, 2010).

Target: T1, OCT3 (Homo sapiens, UniProt O75751)
T1 sequence (O75751 1-556): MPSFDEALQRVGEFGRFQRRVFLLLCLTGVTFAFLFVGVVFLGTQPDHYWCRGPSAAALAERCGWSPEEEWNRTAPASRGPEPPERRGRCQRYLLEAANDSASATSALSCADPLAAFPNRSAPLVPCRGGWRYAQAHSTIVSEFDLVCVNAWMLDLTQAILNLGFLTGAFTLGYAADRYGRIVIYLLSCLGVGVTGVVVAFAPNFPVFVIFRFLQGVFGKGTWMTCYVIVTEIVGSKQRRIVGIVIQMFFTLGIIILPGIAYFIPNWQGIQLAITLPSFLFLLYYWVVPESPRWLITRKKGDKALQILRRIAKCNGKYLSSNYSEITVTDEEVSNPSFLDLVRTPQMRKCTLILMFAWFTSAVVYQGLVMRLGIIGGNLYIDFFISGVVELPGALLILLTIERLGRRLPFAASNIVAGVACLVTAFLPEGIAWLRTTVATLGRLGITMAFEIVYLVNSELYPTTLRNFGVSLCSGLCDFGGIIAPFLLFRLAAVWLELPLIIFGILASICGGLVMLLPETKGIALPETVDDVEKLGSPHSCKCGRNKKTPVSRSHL
Assay: cell-based

A pIC50 of 4.99 was found for `CN1CCN(CCOc2cc(OC3CCOCC3)c3c(Nc4c(Cl)ccc5c4OCO5)ncnc3c2)CC1` [saracatinib, N-(5-chloro-1,3-benzodioxol-4-yl)-7-[2-(4-methylpiperazin-1-yl)ethoxy]-5-(tetrahydro-2H-pyran-4-yloxy)quinazolin-4-amine] in this work.

pIC50: −log10 of the molar value.
